{
  "source": "patent US20100190237A1",
  "about": "“COMPOSITIONS AND METHODS FOR STORAGE OF BACTERIAL SUSPENSIONS” (priority 2007, published 2010)",
  "tested_on": "luminescent bacteria (e.g. Photobacterium leiognathi, Vibrio fischeri, Vibrio harveyi)",
  "assay": "titration of medium components: luminescence during long term storage at refrigeration temperatures",
  "type": "cell-based",
  "conditions": "based on results of examples 2 through 9",
  "procedure": "In order to identify storage conditions suitable for a long term medium for a suspension of luminescent bacteria (e.g. Photobacterium leiognathi, Vibrio fischeri, Vibrio harveyi) different concentrations of monovalent salts, sugars, sources of divalent cations, protein mixtures, albumins and alcohols were tested.\nEach of the medium components (including pH) was tested separately while all other components were kept at a constant concentration as indicated in Table 1. For titration of other components pH was held constant at 7.2. The effect on bacterial luminescence of each component at each tested concentration (or pH value) was determined over a period of several weeks.\nIn order to perform the titration of the medium components, a bacterial culture was spread on LA plates at about 300 colonies per plate after over night growth. Colonies were collected from plates with ASW and centrifuged (10000 g, 10 minutes, 4° C.). Harvested bacteria were resuspended in the different solutions to form experimental bacterial suspensions.\nExperimental bacterial suspensions were stored at −2° C.-+4° C. Each week an aliquot of each experimental bacterial suspension was drawn and diluted in artificial seawater (ASW: 0.5M NaCl, 50 mM MgSO47H2O, 10 mM CaCl22H2O, 10 mM KCl)) supplemented with 50 ppm yeast extract/glucose and incubated at 26° C.-28° C. Light level was recorded after 30 minutes.",
  "data": [
    {"substance": "Bovine serum albumin [BSA]", "values": [
      {"measurement": "range I: concentrations that provided a marked improvement over negative control", "value": "0.62-1.0%"}
    ]}
  ]
}
